According to patent publication US5221606A, “Reagent and kit for enzyme assay comprising a substrate consonant with given enzyme to be assayed” (King's College London, priority 1987, dated 1993):

Assay: solubility in water or aqueous buffer

“2-[2-(4-Benzoyloxy-3-methoxyphenyl)-vinyl-1-methylquinolinium iodide [21e]” showed a solubility in water of 250 µM.
